The structures appear in SMILES notation. Only a part is listed here, and it is no random draw. Some of these compounds have results that are not shown, active ones among them. Activity calls are given as the source filed them.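 How the source made its calls: active means activation above the screen-wide mean plus 3 SD (cut at about 4.5% in these data, passing the limit was not always enough); inactive means the rest, inconclusive results apart.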

Amino acid sequences for entries named in this document (tags omitted).
UniProt Q99500, whole entry: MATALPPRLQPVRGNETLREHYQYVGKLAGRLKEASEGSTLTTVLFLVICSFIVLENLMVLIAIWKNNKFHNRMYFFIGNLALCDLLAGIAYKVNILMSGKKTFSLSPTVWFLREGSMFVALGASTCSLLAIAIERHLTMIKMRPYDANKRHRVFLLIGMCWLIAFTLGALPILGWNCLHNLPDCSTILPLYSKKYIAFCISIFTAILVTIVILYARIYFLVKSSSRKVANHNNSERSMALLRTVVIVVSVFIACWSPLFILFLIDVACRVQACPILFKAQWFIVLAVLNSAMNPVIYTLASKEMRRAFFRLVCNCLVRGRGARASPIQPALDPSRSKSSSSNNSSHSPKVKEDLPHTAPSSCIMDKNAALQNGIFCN

The values that follow come from PubChem BioAssay AID373 (The Scripps Research Institute Molecular Screening Center, 2006).

This test concerns the target Sphingosine 1-phosphate receptor 3 (Homo sapiens) (UniProt Q99500). Kind of test: human S1P3 receptor agonists, primary screen, cell-based, primary and confirmation, NFAT-BLA reporter (AID 373). The conditions noted are these: S1P3 NFAT-BLA reporter cells, agonism, FRET ratio; at 4.5 µM; active compounds read high; relative to 1 µM S1P, basal subtracted.
Take `O=C(OC1CN2CCC1CC2)C(CO)(c1ccccc1)c1ccccc1` (configuration not stated): the activation is inactive: -0.3%. As for `CN(C)c1cccc(C(=O)NCC2(N(C)C)CCCCC2)c1`, the figure is inactive: -0.7%.
